Earlier results as cited in US7326706B2, “Pyrazine modulators of cannabinoid receptors” (Bristol-Myers Squibb Company, priority 2003, dated 2008).

Details: chronic administration for two weeks

Cc1c(C(=O)NN2CCCCC2)nn(-c2ccc(Cl)cc2Cl)c1-c1ccc(I)cc1 [AM-251]
adipose tissue mass: decreased adipose tissue mass
